## Apparent affinities of Ab-14 variants for a coronavirus HR2 peptide

The measurements come from Engelhart et al. 2022 (doi:10.1038/s41597-022-01779-4) through the FLAb antibody collection.

Antigen: PDVDLGDISGINAS, a 14-residue peptide of the SARS-CoV-2 spike HR2 region.

Parent: Ab-14, a human scFv built as VH, the linker GGGGSGGGGSGGGGS, VL. Only the CDRs of the light chain vary.
VH: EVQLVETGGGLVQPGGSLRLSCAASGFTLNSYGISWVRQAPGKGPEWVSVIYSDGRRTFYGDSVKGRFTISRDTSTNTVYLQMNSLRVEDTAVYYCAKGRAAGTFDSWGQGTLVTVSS
VL: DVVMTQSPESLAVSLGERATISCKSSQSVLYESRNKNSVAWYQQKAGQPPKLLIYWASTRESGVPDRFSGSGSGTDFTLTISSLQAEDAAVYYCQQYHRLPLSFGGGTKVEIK

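Library AAYL50 holds single substitutions and randomly drawn double and triple substitutions in the CDRs. The assay is AlphaSeq: two haploid yeast populations carry antibody and antigen on their surface. Binding brings cells together so that they mate, and sequencing counts the barcode pairs among the diploids. Scores were corrected for input abundance and mapped to Kd with protein pairs of known affinity run in the same pool. Each pool was mated in three replicate cultures.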

Changes read parent residue, position, new residue, counted from the first residue of the VL shown. All variants listed here change A57 of the VL, counted from its first residue. Affinities are written as log10 Kd with Kd in nM; a lower number is a better binder. Averages over replicates are reported, and they cover detected replicates only. A pair that was not seen in any replicate is written "no signal"; this usually means weak binding, but a binder can also be missed. As a blank, each scFv also met three strains without target: over library AAYL50, 18% of these pairings were detected, typically at 4.19 and seldom below 2.99.

* Y31A+A57G+L100K = 5.32 (1 of 3 replicates)
* A57P+S62L+L102G = no signal (0 of 3 replicates)
* R34Y+A57R+Q96C = 3.92 (1 of 3 replicates)
* A57W+H98I+R99W = no signal (0 of 3 replicates)
* Q27N+S38E+A57I = 3.35 (1 of 3 replicates)
* R34Y+A57Q+L102F = 1.51 (3 of 3 replicates)
* S38R+A57Q+R99S = no signal (0 of 3 replicates)
* A40L+A57F+H98E = 4.22 (1 of 3 replicates)
* A57L+R99L+P101D = 3.72 (1 of 3 replicates)
* S26F+A57I = 4.40 (1 of 3 replicates)
* E32V+A57T+Q95C = no signal (0 of 3 replicates)
* V39C+A57R+Y97S = no signal (0 of 3 replicates)
* S26H+S28E+A57V = 4.40 (2 of 3 replicates)
* R34M+A57N+S62E = 2.74 (3 of 3 replicates)
* S25M+A57W+R99E = no signal (0 of 3 replicates)
* A57N+Y97P+R99G = no signal (0 of 3 replicates)
* A57E+Q96M+L102Q = no signal (0 of 3 replicates)
* A57M+L102S = 4.55 (2 of 3 replicates)
* V29P+A57E+R99T = 2.52 (3 of 3 replicates)
* K24S+A57G+P101Y = 1.85 (3 of 3 replicates)
* N35C+A57W = 1.72 (3 of 3 replicates)
* R34P+A57W+S103P = no signal (0 of 3 replicates)
* A57V = 5.63 (1 of 3 replicates)
* S38C+A57M+S58M = no signal (0 of 3 replicates)
* A57R+Q95D+Y97N = no signal (0 of 3 replicates)
* N35D+A57N+L102E = 4.35 (3 of 3 replicates)
* V39C+A57C+Q96A = 4.22 (2 of 3 replicates)
* N37W+A57D+P101S = no signal (0 of 3 replicates)
* L30Q+A57V+T59M = 2.09 (3 of 3 replicates)
* A57V+L100R+L102Q = 4.69 (2 of 3 replicates)
* R34C+N37P+A57I = no signal (0 of 3 replicates)
* K24R+L30Q+A57I = no signal (0 of 3 replicates)
* R34Q+W56K+A57T = 0.10 (3 of 3 replicates)
* E32D+A57E+Q95E = 1.68 (3 of 3 replicates)
* S25T+S38L+A57I = 0.79 (3 of 3 replicates)
* V29N+N35S+A57E = 2.85 (3 of 3 replicates)
* N37H+A57M+P101V = no signal (0 of 3 replicates)
* L30H+A57H+E61F = 4.88 (1 of 3 replicates)

Extract of 6 entries:

changes	mean log10 Kd (nM)	detected
R34M+A57N+S62E	2.74	3/3
E32V+A57T+Q95C	no signal	0/3
L30H+A57H+E61F	4.88	1/3
S26H+S28E+A57V	4.40	2/3
A57L+R99L+P101D	3.72	1/3
A57V+L100R+L102Q	4.69	2/3

For reference, the parent read 0.65 as the reference entry and 1.68 as a member of this library.